{"source": "paper PMC5814754", "about": "“Quantitative, Wide-Spectrum Kinase Profiling in Live Cells for Assessing the Effect of Cellular ATP on Target Engagement” (Cell Chemical Biology, 2018)", "key": {"PIK3CA (PI3Kα)": {"molecular_target": "PIK3CA (PI3Kα) (Homo sapiens, UniProt P42336)", "experiment": "NanoBRET target engagement, NanoLuc-PIK3CA, HEK293 cells", "conditions": "EC50 (compound IC50, probe displacement), live HEK293, probe 3"}, "kinases in Jurkat cells": {"system": "kinases in Jurkat cells", "design": "method as in Zhao et al., 2017", "conditions": "100 nM dasatinib; live Jurkat cells; covalent capture probe; ref Zhao et al., 2017; cited from earlier work"}, "178 full-length kinases [1]": {"molecular_target": "178 full-length kinases (Homo sapiens, UniProt Q9UBE8)", "experiment": "NanoBRET single-dose fractional occupancy profiling of kinase/Nluc library in live HEK293 cells (Table S1)", "design": "dose or concentration left out as unconfirmed", "conditions": "NLK, Nluc C, probe 2"}, "178 full-length kinases [2]": {"molecular_target": "178 full-length kinases (Homo sapiens, UniProt Q9NSY1)", "experiment": "NanoBRET single-dose fractional occupancy profiling of kinase/Nluc library in live HEK293 cells (Table S1)", "design": "dose or concentration left out as unconfirmed", "conditions": "BMP2K, Nluc N, probe 5"}, "178 full-length kinases [3]": {"molecular_target": "178 full-length kinases (Homo sapiens, UniProt O75460)", "experiment": "NanoBRET single-dose fractional occupancy profiling of kinase/Nluc library in live HEK293 cells (Table S1)", "design": "dose or concentration left out as unconfirmed", "conditions": "ERN1, Nluc C, probe 5"}, "178 full-length kinases [4]": {"molecular_target": "178 full-length kinases (Homo sapiens, UniProt P78368)", "experiment": "NanoBRET single-dose fractional occupancy profiling of kinase/Nluc library in live HEK293 cells (Table S1)", "design": "dose or concentration left out as unconfirmed", "conditions": "CSNK1G2, Nluc N, probe 5"}, "178 full-length kinases [5]": {"molecular_target": "178 full-length kinases (Homo sapiens, UniProt O95835)", "experiment": "NanoBRET single-dose fractional occupancy profiling of kinase/Nluc library in live HEK293 cells (Table S1)", "design": "dose or concentration left out as unconfirmed", "conditions": "LATS1, Nluc C, probe 5"}, "178 full-length kinases [6]": {"molecular_target": "178 full-length kinases (Homo sapiens, UniProt Q8IVH8)", "experiment": "NanoBRET single-dose fractional occupancy profiling of kinase/Nluc library in live HEK293 cells (Table S1)", "design": "dose or concentration left out as unconfirmed", "conditions": "MAP4K3, Nluc N, probe 5"}, "178 full-length kinases [7]": {"molecular_target": "178 full-length kinases (Homo sapiens, UniProt P42338)", "experiment": "NanoBRET single-dose fractional occupancy profiling of kinase/Nluc library in live HEK293 cells (Table S1)", "design": "dose or concentration left out as unconfirmed", "conditions": "PIK3CB, Nluc N, probe 3"}, "178 full-length kinases [8]": {"molecular_target": "178 full-length kinases (Homo sapiens, UniProt Q13705)", "experiment": "NanoBRET single-dose fractional occupancy profiling of kinase/Nluc library in live HEK293 cells (Table S1)", "design": "dose or concentration left out as unconfirmed", "conditions": "ACVR2B, Nluc C, probe 2"}, "178 full-length kinases [9]": {"molecular_target": "178 full-length kinases (Homo sapiens, UniProt P17612)", "experiment": "NanoBRET single-dose fractional occupancy profiling of kinase/Nluc library in live HEK293 cells (Table S1)", "design": "dose or concentration left out as unconfirmed", "conditions": "PRKACA, Nluc C, probe 5"}, "178 full-length kinases [10]": {"molecular_target": "178 full-length kinases (Homo sapiens, UniProt Q12852)", "experiment": "NanoBRET single-dose fractional occupancy profiling of kinase/Nluc library in live HEK293 cells (Table S1)", "design": "dose or concentration left out as unconfirmed", "conditions": "MAP3K12, Nluc N, probe 5"}, "178 full-length kinases [11]": {"molecular_target": "178 full-length kinases (Homo sapiens, UniProt Q92630)", "experiment": "NanoBRET single-dose fractional occupancy profiling of kinase/Nluc library in live HEK293 cells (Table S1)", "design": "dose or concentration left out as unconfirmed", "conditions": "DYRK2, Nluc C, probe 5"}, "178 full-length kinases [12]": {"molecular_target": "178 full-length kinases (Homo sapiens, UniProt Q8IYT8)", "experiment": "NanoBRET single-dose fractional occupancy profiling of kinase/Nluc library in live HEK293 cells (Table S1)", "design": "dose or concentration left out as unconfirmed", "conditions": "ULK2 (NP_001136082), Nluc orientation N, probe 5; replicate 2"}, "178 full-length kinases [13]": {"molecular_target": "178 full-length kinases (Homo sapiens, UniProt O76039)", "experiment": "NanoBRET single-dose fractional occupancy profiling of kinase/Nluc library in live HEK293 cells (Table S1)", "design": "dose or concentration left out as unconfirmed", "conditions": "CDKL5, Nluc N, probe 5"}, "178 full-length kinases [14]": {"molecular_target": "178 full-length kinases (Homo sapiens, UniProt P51956)", "experiment": "NanoBRET single-dose fractional occupancy profiling of kinase/Nluc library in live HEK293 cells (Table S1)", "design": "dose or concentration left out as unconfirmed", "conditions": "NEK3, Nluc N, probe 5"}, "178 full-length kinases [15]": {"molecular_target": "178 full-length kinases (Homo sapiens, UniProt P31152)", "experiment": "NanoBRET single-dose fractional occupancy profiling of kinase/Nluc library in live HEK293 cells (Table S1)", "design": "dose or concentration left out as unconfirmed", "conditions": "MAPK4, Nluc N, probe 5"}, "178 full-length kinases [16]": {"molecular_target": "178 full-length kinases (Homo sapiens, UniProt Q9NY57)", "experiment": "NanoBRET single-dose fractional occupancy profiling of kinase/Nluc library in live HEK293 cells (Table S1)", "design": "dose or concentration left out as unconfirmed", "conditions": "STK32B (NP_060871), Nluc orientation N, probe 5; replicate 1"}, "178 full-length kinases [17]": {"molecular_target": "178 full-length kinases (Homo sapiens, UniProt Q13237)", "experiment": "NanoBRET single-dose fractional occupancy profiling of kinase/Nluc library in live HEK293 cells (Table S1)", "design": "dose or concentration left out as unconfirmed", "conditions": "PRKG2, Nluc C, probe 5"}, "178 full-length kinases [18]": {"molecular_target": "178 full-length kinases (Homo sapiens, UniProt Q13470)", "experiment": "NanoBRET single-dose fractional occupancy profiling of kinase/Nluc library in live HEK293 cells (Table S1)", "design": "dose or concentration left out as unconfirmed", "conditions": "TNK1 (NP_003976), Nluc orientation N, probe 5; replicate 1"}, "178 full-length kinases [19]": {"molecular_target": "178 full-length kinases (Homo sapiens, UniProt Q15831)", "experiment": "NanoBRET single-dose fractional occupancy profiling of kinase/Nluc library in live HEK293 cells (Table S1)", "design": "dose or concentration left out as unconfirmed", "conditions": "STK11 (NP_000446), Nluc orientation N, probe 5; replicate 2"}, "178 full-length kinases [20]": {"molecular_target": "178 full-length kinases (Homo sapiens, UniProt Q8WU08)", "experiment": "NanoBRET single-dose fractional occupancy profiling of kinase/Nluc library in live HEK293 cells (Table S1)", "design": "dose or concentration left out as unconfirmed", "conditions": "STK32A (NP_001106195), Nluc orientation N, probe 5; replicate 2"}, "BCR-ABL oncoprotein": {"system": "BCR-ABL oncoprotein", "design": "method as in Savitski et al., 2014", "conditions": "thermal profiling in live cells; ref Savitski et al., 2014; cited from earlier work"}}, "data": [{"smiles": "Cc1nc(-c2cn3c(n2)-c2ccc(-c4cnn(C(C)(C)C(N)=O)c4)cc2OCC3)n(C(C)C)n1", "note": "[Taselisib]", "values": [{"measurement": "IC50", "setting": "PIK3CA (PI3Kα); NanoLuc-PIK3CA Replicate 1", "value": 12, "unit": "nM"}, {"measurement": "IC50", "setting": "PIK3CA (PI3Kα); NanoLuc-PIK3CA Replicate 2", "value": 10.6, "unit": "nM"}]}, {"smiles": "Cc1nc(Nc2ncc(C(=O)Nc3c(C)cccc3Cl)s2)cc(N2CCN(CCO)CC2)n1", "note": "[Dasatinib]", "values": [{"measurement": "number of kinases occupied >50%", "setting": "kinases in Jurkat cells", "value": "six"}, {"measurement": "Occupancy, % Replicate 1", "setting": "178 full-length kinases [1]", "value": "No Binding"}, {"measurement": "Occupancy, % Replicate 2", "setting": "178 full-length kinases [2]", "value": "No Binding"}, {"measurement": "Occupancy, % Replicate 2", "setting": "178 full-length kinases [3]", "value": "No Binding"}, {"measurement": "Occupancy, % Replicate 2", "setting": "178 full-length kinases [4]", "value": "No Binding"}, {"measurement": "Occupancy, % Replicate 1", "setting": "178 full-length kinases [5]", "value": "No Binding"}, {"measurement": "Occupancy, % Replicate 1", "setting": "178 full-length kinases [6]", "value": "No Binding"}, {"measurement": "Occupancy, % Replicate 2", "setting": "178 full-length kinases [7]", "value": "No Binding"}, {"measurement": "Occupancy, % Replicate 2", "setting": "178 full-length kinases [8]", "value": "No Binding"}, {"measurement": "Occupancy, % Replicate 2", "setting": "178 full-length kinases [9]", "value": "No Binding"}, {"measurement": "Occupancy, % Replicate 1", "setting": "178 full-length kinases [10]", "value": "No Binding"}, {"measurement": "Occupancy, % Replicate 2", "setting": "178 full-length kinases [10]", "value": "No Binding"}, {"measurement": "Occupancy, % Replicate 1", "setting": "178 full-length kinases [11]", "value": "No Binding"}, {"measurement": "Occupancy, % Replicate 2", "setting": "178 full-length kinases [12]", "value": "No Binding"}, {"measurement": "Occupancy, % Replicate 2", "setting": "178 full-length kinases [13]", "value": "No Binding"}, {"measurement": "Occupancy, % Replicate 1", "setting": "178 full-length kinases [14]", "value": "No Binding"}, {"measurement": "Occupancy, % Replicate 1", "setting": "178 full-length kinases [15]", "value": "No Binding"}, {"measurement": "Occupancy, % Replicate 1", "setting": "178 full-length kinases [16]", "value": "No Binding"}, {"measurement": "Occupancy, % Replicate 2", "setting": "178 full-length kinases [17]", "value": "No Binding"}, {"measurement": "Occupancy, % Replicate 1", "setting": "178 full-length kinases [18]", "value": "No Binding"}, {"measurement": "Occupancy, % Replicate 2", "setting": "178 full-length kinases [19]", "value": "No Binding"}, {"measurement": "Occupancy, % Replicate 2", "setting": "178 full-length kinases [20]", "value": "No Binding"}, {"measurement": "identification of BCR-ABL as a direct target", "setting": "BCR-ABL oncoprotein", "value": "failed to identify"}]}]}
